Assay [1] addresses Human IgG1 (Avastin, bevacizumab) (human). Briefly: SPR; pH 6.
Assay [2] shares this target. Description: SPR; pH 7.4.

Chains of the proteins cited; added tags and fusions are not shown. Chains listed by the source or under a name are the forms on record and can include a tag or linker.
Human IgG1 (Avastin, bevacizumab) (human), heavy, as listed by the source, chain 1 of 2: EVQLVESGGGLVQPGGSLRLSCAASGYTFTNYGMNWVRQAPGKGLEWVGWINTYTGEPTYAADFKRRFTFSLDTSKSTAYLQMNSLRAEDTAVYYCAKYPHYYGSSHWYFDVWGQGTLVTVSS
Human IgG1 (Avastin, bevacizumab) (human), light, as listed by the source, chain 2 of 2: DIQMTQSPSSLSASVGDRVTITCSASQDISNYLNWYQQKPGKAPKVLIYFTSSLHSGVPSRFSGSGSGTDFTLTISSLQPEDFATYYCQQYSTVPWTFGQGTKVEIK

pKd: −log10 of the molar value.

Consider “Recombinant Protein A (SpA) (from UniProt P38507 37-477) (natural protein)”, for which, in assay [1], the pKd was 7.80, the koff stood at 0.0012 s⁻¹ and the kon turned out to be 80000 M⁻¹ s⁻¹. In assay [2], the pKd was 8.70, the koff was 0.023 s⁻¹ and the kon amounted to 130000 M⁻¹ s⁻¹.
